{"source": "patent US8765481B2", "about": "“Method for detecting peroxide explosives” (dated 2014)", "key": {"[1]": {"assay": "Solubility of HMTD in ionic liquids (content via 1H NMR)", "details": "for rel. HMTD integral: 1H NMR, sum of the two HMTD proton signals after normalization of an IL methyl group to 3; for C[HMTD]: solubility of HMTD in the ionic liquid"}, "[2]": {"details": "solubility of TATP in the ionic liquid"}}, "data": [{"substance": "1-Butyl-3-methylpyrolidinium bis(trifluoromethane)sulfonimide", "values": [{"measurement": "rel. HMTD integral", "setting": "[1]", "value": 0.55}, {"measurement": "C[HMTD]", "setting": "[1]", "value": 2.26, "unit": "wt.-%"}]}, {"substance": "1-Ethyl-3-methylimidazolium diethylphosphate", "values": [{"measurement": "rel. HMTD integral", "setting": "[1]", "value": 0.14}, {"measurement": "C[HMTD]", "setting": "[1]", "value": 0.92, "unit": "wt.-%"}]}, {"substance": "1-butyl-3-methylimidazolium bis(trifluoromethane) sulfonimide", "values": [{"measurement": "C[TATP]", "setting": "[2]", "value": 0.94, "unit": "wt.-%"}]}, {"substance": "1-ethyl-3-methylimidazolium bis(trifluoromethane) sulfonimide", "values": [{"measurement": "C[TATP]", "setting": "[2]", "value": 0.38, "unit": "wt.-%"}, {"measurement": "rel. HMTD integral", "setting": "[1]", "value": 0.54}, {"measurement": "C[HMTD]", "setting": "[1]", "value": 2.39, "unit": "wt.-%"}]}, {"substance": "1-hexyl-3-methylimidazolium bis(trifluoromethane)sulfonimide", "values": [{"measurement": "C[TATP]", "setting": "[2]", "value": 0.86, "unit": "wt.-%"}, {"measurement": "rel. HMTD integral", "setting": "[1]", "value": 1.17}, {"measurement": "C[HMTD]", "setting": "[1]", "value": 4.53, "unit": "wt.-%"}]}, {"substance": "N-hexylpyridinium bis(trifluoromethane)sulfonimide", "values": [{"measurement": "C[TATP]", "setting": "[2]", "value": 0.92, "unit": "wt.-%"}, {"measurement": "rel. HMTD integral", "setting": "[1]", "value": 0.54}, {"measurement": "C[HMTD]", "setting": "[1]", "value": 2.11, "unit": "wt.-%"}]}]}
